## Binding of CDR-mutated scFvs to a peptide of the spike HR2 region

From the AlphaSeq antibody data of Engelhart et al. 2022 (doi:10.1038/s41597-022-01779-4), copy in the FLAb collection.

Target peptide (SARS-CoV-2 spike, HR2 region): PDVDLGDISGINAS

Parent: Ab-14, a human scFv built as VH, a 15-residue (Gly4Ser)3 linker, VL. Only the CDRs of the light chain vary.
VH: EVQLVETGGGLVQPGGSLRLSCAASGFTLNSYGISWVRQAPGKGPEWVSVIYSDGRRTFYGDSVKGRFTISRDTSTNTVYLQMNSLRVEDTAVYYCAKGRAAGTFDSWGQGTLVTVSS
VL: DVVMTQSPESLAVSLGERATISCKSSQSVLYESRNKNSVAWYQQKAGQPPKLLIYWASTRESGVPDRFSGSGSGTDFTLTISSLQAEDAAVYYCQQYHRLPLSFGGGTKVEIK

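AAYL50 was designed without a model: most single CDR substitutions and a random sample of double and triple ones. AlphaSeq pools MATa yeast showing the antibodies with MATalpha yeast showing the peptide. Mating (16 h, 30 °C) was followed by selection of diploids and sequencing of their barcodes. Scores were corrected for input abundance and mapped to Kd with protein pairs of known affinity run in the same pool. Mating was done three times.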

Substitutions are numbered in sequence along the VL above, starting at 1 (not Kabat).
The read-out is the apparent dissociation constant on a log10 scale (nM): the lower, the stronger.
Replicates are averaged; those with no signal do not enter the mean.
A pair that was not seen in any replicate is written "nd"; this usually means weak binding, but a binder can also be missed.
Three control strains display no target. For library AAYL50, 18% of the pairings with them gave a signal, with a median of 4.19 and one signal in twenty below 2.99, so weak values seen in few replicates may be background.

| # | log10 Kd (nM), mean | seen in | changes |
|---|---|---|---|
| 1 | nd | 0/3 | E61Y R99V L102C |
| 2 | 3.77 | 1/3 | S26V L30W S38G |
| 3 | 4.49 | 3/3 | S38F R60H L100Q |
| 4 | 0.71 | 3/3 | S26N E32D T59M |
| 5 | 0.84 | 3/3 | E32Q R34F T59I |
| 6 | 3.41 | 3/3 | V29H S33V N35C |
| 7 | nd | 0/3 | S26R A40N H98S |
| 8 | 1.27 | 3/3 | S33G S58G L100Y |
| 9 | nd | 0/3 | L30I A40L A57G |
| 10 | 0.45 | 3/3 | Y31G S38N |
| 11 | 4.52 | 2/3 | K24P V29E A40F |
| 12 | nd | 0/3 | S28R N35F P101S |
| 13 | 3.87 | 2/3 | V39F A57W S58K |
| 14 | 1.65 | 3/3 | S26Y R34L S62W |
| 15 | nd | 0/3 | Y31K Q96V L102A |
| 16 | nd | 0/3 | R34S S62R R99F |
| 17 | 0.27 | 3/3 | S25L S26R L30E |
| 18 | nd | 0/3 | Q27C S28H L102S |
| 19 | 2.67 | 3/3 | L30A S33Y S103I |
| 20 | 1.20 | 3/3 | S26Y Y31E N35K |
| 21 | 1.15 | 3/3 | V29E R34V P101H |
| 22 | 4.87 | 1/3 | Q27E S33P S58L |
| 23 | 3.00 | 3/3 | S33Q K36F Q96T |
| 24 | nd | 0/3 | V39W W56Y E61G |
| 25 | 2.39 | 3/3 | V29R H98K |
| 26 | nd | 0/3 | S28A R60V |
| 27 | 3.11 | 1/3 | E61N R99V P101D |
| 28 | nd | 0/3 | N35L R60V S103H |
| 29 | 2.97 | 1/3 | S26P Y31P S62M |
| 30 | nd | 0/3 | S26Q S33T R99P |
| 31 | 3.78 | 1/3 | A40P W56S L100M |
| 32 | 1.50 | 3/3 | V29D E32V N37E |
| 33 | 1.54 | 3/3 | K24T R34P R99E |
| 34 | 2.34 | 3/3 | L30I T59C S62Q |
| 35 | 4.40 | 1/3 | V29Q A40I Y97E |
| 36 | 1.19 | 3/3 | K24R L100W P101N |
| 37 | 2.49 | 3/3 | Q27L E32K L102E |
| 38 | 2.40 | 3/3 | V29H E32N E61P |
| 39 | nd | 0/3 | K24F N35Q T59F |
| 40 | 1.20 | 3/3 | R34G N37D W56L |
| 41 | 4.25 | 1/3 | R34D T59P |
| 42 | 5.89 | 1/3 | K24C S58Y H98D |
| 43 | 3.94 | 1/3 | R34F S103F |
| 44 | 5.06 | 1/3 | K24N S25Y Y97P |
| 45 | 2.48 | 3/3 | K36A S58V Y97F |
| 46 | 3.37 | 2/3 | K36G A40P Q95K |
| 47 | nd | 0/3 | K24I T59S R99W |
| 48 | 1.80 | 3/3 | Y31I Q96F Y97K |
| 49 | 2.06 | 3/3 | S38D S62Q L102F |
| 50 | 1.23 | 3/3 | K36F N37H L102H |
| 51 | 1.60 | 3/3 | V29A Y31Q N35I |
| 52 | 3.71 | 1/3 | K24P S28H R60N |
| 53 | nd | 0/3 | A40W Q95E S103Y |
| 54 | nd | 0/3 | K24A P101S |
| 55 | 3.17 | 1/3 | S26H A40Q R99L |
| 56 | 4.59 | 1/3 | Q27T S38R Q96H |
| 57 | 3.84 | 1/3 | S25E R60K Q95K |
| 58 | 3.19 | 3/3 | R34Q W56C R60S |
| 59 | 0.43 | 3/3 | R34L L100K L102V |
| 60 | 4.13 | 1/3 | V39C E61A L100S |

The closing 5 entries, repeated:

| changes | log10 Kd (nM), mean | seen in |
|---|---|---|
| Q27T S38R Q96H | 4.59 | 1/3 |
| S25E R60K Q95K | 3.84 | 1/3 |
| R34Q W56C R60S | 3.19 | 3/3 |
| R34L L100K L102V | 0.43 | 3/3 |
| V39C E61A L100S | 4.13 | 1/3 |